# Ab-14 heavy chain CDR variants: yeast mating affinities

Data: MIT Lincoln Laboratory AlphaSeq set, Li et al. 2023, doi:10.1038/s41467-023-39022-2, as distributed in FLAb.

The target is the same throughout: PDVDLGDISGINAS, from the HR2 region of SARS-CoV-2 spike.

Each scFv is VH, the linker GGGGSGGGGSGGGGS, VL, as in the parent Ab-14, and differs from it in the CDRs of the heavy chain only.
VH: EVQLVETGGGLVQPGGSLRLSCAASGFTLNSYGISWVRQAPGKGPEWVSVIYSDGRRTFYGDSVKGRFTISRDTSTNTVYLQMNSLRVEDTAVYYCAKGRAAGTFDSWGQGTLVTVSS
VL: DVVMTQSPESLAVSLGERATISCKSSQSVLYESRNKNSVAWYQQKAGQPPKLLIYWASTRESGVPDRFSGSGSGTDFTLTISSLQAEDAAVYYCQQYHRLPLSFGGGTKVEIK

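The parent was found by panning a naive human phage display library on the peptide. This is the validation round: designs drawn from the data on random variants, tested in the same kind of assay. Their group label is 14H_En_Gibbs (En: ensemble of fine-tuned language models; Gibbs: Gibbs sampling). Affinity was read by AlphaSeq, a pooled yeast mating assay with surface-displayed partners. Pairs that bind mate more often; barcode pairs of the diploids are counted by sequencing. Scores were corrected for input abundance and mapped to Kd with protein pairs of known affinity run in the same pool. Each pool was mated in six replicate cultures.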

The whole VH of each variant is written out.
Scale: log10 of Kd in nM, estimated from mating counts; low values are strong binders.
"ND" marks a missing value. The strain was present, yet no cells mated with the target were sequenced in that replicate, which points to weak or no binding.
Values of this round are not directly comparable with the first-round values of the same sequences.
Of ten entries with the parent sequence, four were seen in most replicates (averages 0.34 to 2.37), three in one and three in none, so single entries are noisy.
The authors' rule: three or more of the six replicates give a measured affinity, fewer mean a poor binder.
Background: pairings of all heavy chain designs with three empty control strains gave a value in 1% of cases (median 2.08, 5th percentile 0.84). Values in that range, when seen in few replicates, are hard to tell from nonspecific mating. The control count says in how many pairings with the empty strains this scFv gave a signal, with their mean in brackets.

| VH | replicates, log10 nM | empty controls |
|---|---|---|
| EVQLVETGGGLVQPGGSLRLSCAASGFDIQDYGISWVRQAPGKGPEWVSVIYADGSRTAYVNSVKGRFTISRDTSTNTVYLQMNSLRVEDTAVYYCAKGEQGASYDLWGQGTLVTVSS | ND / 1.86 / 2.20 / 1.85 / 2.50 / 2.43 | 0 of 18 |
| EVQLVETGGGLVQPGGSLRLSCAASEFQIQDYGISWVRQAPGKGPEWVSVIYADGSRTAYAESVKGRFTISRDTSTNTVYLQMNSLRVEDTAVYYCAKGNIGGTISTWGQGTLVTVSS | ND / ND / ND / ND / ND / ND | 0 of 18 |
| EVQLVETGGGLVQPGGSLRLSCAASGQHLDEYGISWVRQAPGKGPEWVSVIYADGMRKYYADNVKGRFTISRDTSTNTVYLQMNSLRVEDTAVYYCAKGKSVFSIIIWGQGTLVTVSS | -0.04 / 0.40 / 0.16 / 0.41 / ND / -0.37 | 0 of 18 |
| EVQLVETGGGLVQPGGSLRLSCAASGYSLEDYGISWVRQAPGKGPEWVSVIYADGRRTAYAADVKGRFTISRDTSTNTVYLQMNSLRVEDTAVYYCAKGQGTNVVAGWGQGTLVTVSS | ND / ND / ND / ND / ND / ND | 0 of 18 |
| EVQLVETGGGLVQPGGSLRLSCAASEFDLQEYGISWVRQAPGKGPEWVSVIYADGKREAYKDNVKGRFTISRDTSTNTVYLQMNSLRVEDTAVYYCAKGNGGGVFDAWGQGTLVTVSS | ND / ND / ND / ND / ND / ND | 0 of 18 |
| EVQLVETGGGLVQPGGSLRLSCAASGFELNEYGISWVRQAPGKGPEWVSVIYADGMKQAYRDAVKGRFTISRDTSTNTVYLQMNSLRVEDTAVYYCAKGGIAGNFMMWGQGTLVTVSS | ND / ND / 1.27 / 1.07 / 1.23 / 1.95 | 0 of 18 |
| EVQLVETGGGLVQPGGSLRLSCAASGFDVNEYGISWVRQAPGKGPEWVSVIYADGVRRTYADAVKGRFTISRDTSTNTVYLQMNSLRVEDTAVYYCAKGKLSGVVDVWGQGTLVTVSS | ND / ND / ND / ND / ND / ND | 0 of 18 |
| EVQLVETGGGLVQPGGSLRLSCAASGFDLEKYGIHWVRQAPGKGPEWVSVIYADGIRASYSDSVKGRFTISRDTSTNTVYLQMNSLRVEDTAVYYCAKGDLSGTFYVWGQGTLVTVSS | ND / ND / ND / ND / ND / 1.75 | 0 of 18 |
| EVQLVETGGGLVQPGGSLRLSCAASGFDLEEMGISWVRQAPGKGPEWVSVIYADGIRTAVSNDVKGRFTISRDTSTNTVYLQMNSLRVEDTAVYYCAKGNVAGTGDVWGQGTLVTVSS | ND / ND / ND / ND / 1.70 / ND | 0 of 18 |
| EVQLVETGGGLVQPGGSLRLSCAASGKALDEYGISWVRQAPGKGPEWVSVIYADGQRVFYSDTVKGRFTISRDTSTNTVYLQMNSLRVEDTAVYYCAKGNQGFTYDVWGQGTLVTVSS | ND / ND / ND / ND / ND / ND | 0 of 18 |
| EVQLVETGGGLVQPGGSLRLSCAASGFDVNEYGISWVRQAPGKGPEWVSVIYADGRRTQYVQSVKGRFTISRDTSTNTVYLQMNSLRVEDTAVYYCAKGKNNMVLSVWGQGTLVTVSS | ND / ND / ND / ND / ND / ND | 0 of 18 |
| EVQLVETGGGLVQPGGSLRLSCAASEFNLEEFGISWVRQAPGKGPEWVSVIYADGKRTAYVPNVKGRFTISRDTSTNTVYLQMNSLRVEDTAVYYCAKGHLGGHFDMWGQGTLVTVSS | ND / ND / ND / ND / ND / ND | 0 of 18 |
| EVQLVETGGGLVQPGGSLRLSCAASGHDLNEYGISWVRQAPGKGPEWVSVIYADGKRSYYAQDVKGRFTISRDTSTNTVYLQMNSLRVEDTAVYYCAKGQNIGQGTDWGQGTLVTVSS | ND / ND / ND / 1.07 / ND / ND | 0 of 18 |
| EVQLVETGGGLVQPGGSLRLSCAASGFSLDEYGISWVRQAPGKGPEWVSVIYADGMRAAYQPSVKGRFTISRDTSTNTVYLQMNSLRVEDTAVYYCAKGFTGFVVAIWGQGTLVTVSS | ND / ND / ND / ND / ND / ND | 0 of 18 |
| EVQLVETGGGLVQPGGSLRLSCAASGDSLNEYGISWVRQAPGKGPEWVSVIYADGSRSKYADKFKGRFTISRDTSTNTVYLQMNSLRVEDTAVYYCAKGQVAGYFGVWGQGTLVTVSS | ND / ND / ND / ND / ND / ND | 0 of 18 |
| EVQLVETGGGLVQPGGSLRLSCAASGKTLDEYGISWVRQAPGKGPEWVSVIYADGMRTQYIDQVKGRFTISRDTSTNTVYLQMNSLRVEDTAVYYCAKGGIDGWNMTWGQGTLVTVSS | ND / ND / ND / ND / ND / ND | 0 of 18 |
| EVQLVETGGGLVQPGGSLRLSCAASGKTLDEYGISWVRQAPGKGPEWVSVIYADGMRTFYANTVKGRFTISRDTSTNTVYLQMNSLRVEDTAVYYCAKGEDGGFLNQWGQGTLVTVSS | ND / ND / ND / ND / ND / ND | 0 of 18 |
| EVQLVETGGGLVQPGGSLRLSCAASGKDLEEYGISWVRQAPGKGPEWVSVIYADGRRTAYIENVKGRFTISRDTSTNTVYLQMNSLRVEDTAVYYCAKDGLNDGIDVWGQGTLVTVSS | ND / ND / ND / ND / ND / ND | 0 of 18 |
| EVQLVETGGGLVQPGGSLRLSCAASGFELDEYGISWVRQAPGKGPEWVSVIYADGARTAYVDNVKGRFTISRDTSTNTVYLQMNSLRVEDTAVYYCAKGDAVGSFHVWGQGTLVTVSS | ND / ND / 1.93 / ND / ND / ND | 0 of 18 |
| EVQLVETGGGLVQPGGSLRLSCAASGFDLNEFGVSWVRQAPGKGPEWVSVIYADGSRASYADKVKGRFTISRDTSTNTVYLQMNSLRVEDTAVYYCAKGFNFGQLIVWGQGTLVTVSS | ND / ND / ND / ND / ND / ND | 0 of 18 |
| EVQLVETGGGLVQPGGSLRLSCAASGFSLNEYGISWVRQAPGKGPEWVSVIYADGKRQVYANKVKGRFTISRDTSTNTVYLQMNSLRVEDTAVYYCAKGNKTMTFDIWGQGTLVTVSS | ND / ND / ND / ND / ND / ND | 1 of 18 (1.88) |
| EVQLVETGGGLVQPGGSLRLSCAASGFQIDEYGISWVRQAPGKGPEWVSVIYADGLRTVYDDAVKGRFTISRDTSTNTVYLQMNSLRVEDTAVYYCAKGMDTGLFMIWGQGTLVTVSS | ND / ND / ND / ND / ND / ND | 0 of 18 |
| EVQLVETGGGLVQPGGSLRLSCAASGFNLAEYGISWVRQAPGKGPEWVSVIYADGRRVYYANAVKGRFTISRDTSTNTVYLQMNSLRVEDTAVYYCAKGKNGENFSFWGQGTLVTVSS | ND / ND / ND / ND / ND / ND | 0 of 18 |
| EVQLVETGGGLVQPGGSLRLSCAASGFDINEYGISWVRQAPGKGPEWVSVIYADGTKTAYANTVKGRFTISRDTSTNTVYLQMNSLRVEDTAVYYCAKGKYVGTFVDWGQGTLVTVSS | ND / ND / ND / ND / ND / ND | 0 of 18 |